The text below walks through data of patent US12527774B2, “Estrogen-related receptor alpha modulators” (LEAD PHARMA HOLDING B.V., priority 2019, dated 2026).

For this experiment, the system named is B16F10 melanoma. Description: B16F10 Melanoma Syngeneic Mouse Model. As to conditions: 30 mpk p.o., q.d., C57BL/6 mice. As for the experimental part:
B16F10 Melanoma Syngeneic Mouse Model
Examples inhibitors 100, 191, 192, 194 and 196 were tested for their ability to inhibit tumor growth in a B16F10 melanoma syngeneic mouse model.
Cell line and tumor model: B16F10 melanoma cell line derived allograft model in C57BL/6 mice.
Mouse B16F10 melanoma cells were sourced from American Type Culture Collection (ATCC), USA. Cells were grown in DMEM (Invitrogen, Catalogue No. 31600-034) supplemented with 10% FBS (Invitrogen, Catalogue No. 10438-026), and 1% penicillin streptomycin (Thermo Fisher Scientific, Catalogue No. 15140-122). […]
B16F10 tumor grafts were measured after 5 days of cell inoculation once they became palpable. […]
Tumor dimensions—length (I) and breadth (b)—were measured by caliper on the day of animal randomization based on tumor volume (Day 1) and thrice weekly thereafter until study termination. Tumor volumes were calculated using the formula b^2*I*0.52 where l=length, b=breadth (Dusan Djokovic et al., BMC Cancer, 2010, 10:641). Tumor growth inhibition was calculated after normalizing the tumor volume on a given day to that on Day 1. […]

As to `COc1cc(C2CC(=O)Nc3n[nH]cc32)ccc1COc1ccc(C(F)(F)F)cc1C(F)(F)F` (racemic), the “Tumor Volume (mm^3) Day 13” value was determined as 814 ± 117 mm^3. Also, the “Tumor Growth Inhibition (%)” value (Day 13) was 57%.
